Assay results as given in US20060029995A1, “Novel class of metacaspases” (Vlaams Interuniversitair Instituut Voor Biotechnologie VZW, priority 2003, published 2006).

How the values were obtained:
Atmc9 [1] = molecular target: T1, Atmc9 (Arabidopsis thaliana, UniProt Q9FYE1); format: biochemical; conditions: for Activity (%): pH 5.3
T1 construct: it indeed consists of amino acids 184 to 325 (calculated mass 15427 Da); made in house; host or cells: E. coli BL21(DE3), pDEST17, Ni-NTA purified
T1 sequence (Q9FYE1 1-183 limits assumed): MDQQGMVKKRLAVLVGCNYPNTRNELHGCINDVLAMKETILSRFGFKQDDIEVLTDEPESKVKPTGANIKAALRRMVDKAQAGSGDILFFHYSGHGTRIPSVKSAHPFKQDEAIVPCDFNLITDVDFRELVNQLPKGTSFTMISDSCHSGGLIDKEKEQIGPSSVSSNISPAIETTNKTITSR
T1 sequence (Q9FYE1 184-325 limits assumed): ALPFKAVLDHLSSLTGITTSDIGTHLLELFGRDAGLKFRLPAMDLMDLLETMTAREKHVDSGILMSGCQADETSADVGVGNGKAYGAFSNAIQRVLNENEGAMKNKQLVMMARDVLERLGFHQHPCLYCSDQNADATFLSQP
Experimental: Assays were performed in 150 μl with 400 ng of purified Atmc9 and 50 μM substrate in an optimized metacaspase 9 assay buffer (50 mM MES pH 5.3, 10% (w/v) sucrose, 0.1% (w/v) 3-[(3-cholamidopropyl)dimethylammonio]-1-propanesulfonate [CHAPS], 10 mM DTT). Time-dependent release of free amido-4-methylcoumarin (AMC) was measured on a Cytofluor 4000 fluorescence microplate reader (PerSeptive Biosystems, Farmingham, Md., USA).
We also assessed the sensitivity of Atmc9 for several protease inhibitors, chelating agents, metal ions, and stabilizing agents in the GKR-ase assay (Table 2). […] To optimize the assay conditions for Atmc9 activity, several stabilizing agents were tested.
Percentage of the activity of recombinant Atmc9 in 50 mM MES (pH 5.3) and 10 mM DTT.

Atmc9 [2] = molecular target: T1, Atmc9; assay: kcat/Km of artificial substrates of Atmc9; format: biochemical; conditions: summary of Table 1
Experimental: The activity assay buffer used was composed of 50 mM MES pH 5.3, 10% (w/v) sucrose, 0.1% (w/v) 3-[(3-cholamidopropyl)dimethylammonio]-1-propanesulfonate [CHAPS], 10 mM DTT.
The concentration of active sites in the preparation of rAtmc9 was determined by active site titration with the irreversible inhibitor Z-FK-2,4,6-trimethylbenzoyloxymethyl ketone (Z-FK-tbmk; Enzyme Systems Products, Livermore, Calif., USA) to be 30 μM.
For determination of kcat/Km, 50 μl of 20 μM of the tested substrates (t-butyloxycarbonyl-Gly-Lys-Arg-7-amido-4-methylcoumarin (Boc-GKR-AMC); t-butyloxycarbonyl-Gly-Arg-Arg-7-amido-4-methylcoumarin (Boc-GRR-AMC); benzyloxycarbonyl-Phe-Arg-AMC (Z-FR-AMC); H-Ala-Phe-Lys-7-amido-4-methylcoumarin (H-AFK-AMC)) was mixed with 50 μl 600 nM rAtmc9 (final concentrations 300 nM rAtmc9 and 10 μM substrate). Release of free AMC was determined in a time course using a FLUOstar Optima fluorescence plate reader (BMB Lab Technologies, Offenburg, Del.). After total hydrolysis of the substrates, kcatlKm was calculated using the following formula: kcat/Km=kobsIEt, where kobs is determined as the decrease per second of the natural logarithm of substrate left, and Et is the concentration of enzyme active sites in the reaction.

metacaspase 3 = molecular target: T2, metacaspase 3 (Arabidopsis thaliana, UniProt Q9FMG1); assay: Cleavage of fluorescent artificial substrates by purified metacaspase 3; format: biochemical; conditions: assay buffers of pHs ranging from 4.5 to 9.0 (MES 50 mM)
T2 construct: made in house; host or cells: bacterial production, pDEST17 (E. coli by the general method)
T2 sequence (Q9FMG1 1-362 R151K/L157V/V158I/Q177E): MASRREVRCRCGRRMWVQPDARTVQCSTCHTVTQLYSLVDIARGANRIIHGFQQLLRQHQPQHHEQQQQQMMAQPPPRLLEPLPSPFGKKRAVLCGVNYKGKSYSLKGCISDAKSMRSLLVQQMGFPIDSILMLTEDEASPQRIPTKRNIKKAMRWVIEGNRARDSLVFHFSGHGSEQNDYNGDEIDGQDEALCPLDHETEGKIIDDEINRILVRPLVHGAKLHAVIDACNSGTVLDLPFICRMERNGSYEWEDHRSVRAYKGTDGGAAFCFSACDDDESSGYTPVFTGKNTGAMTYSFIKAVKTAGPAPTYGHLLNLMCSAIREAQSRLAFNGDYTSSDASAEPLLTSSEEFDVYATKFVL
Description: For generation of the prodomain deletion mutant of Arabidopsis thaliana metacaspase 3 (MC3ΔN), residues 1 to 91 were replaced by a methionine residue by PCR, using 5′-[…]-3′ (SEQ ID NO:43) as the forward primer and 5′-[…]-3′ (SEQ ID NO:17) as the reverse primer. 5′ extensions used for Gateway™ (Invitrogen) cloning were 5′-[…]-3′ (SEQ ID NO:44) for forward primers and 5′-[…]-3′ (SEQ ID NO:45) for reverse primers. For bacterial production, the cDNA's were cloned into the bacterial expression vector pDEST17™ (Invitrogen), resulting in the amino-terminal translational addition of the following HIS6 tag-containing sequence: […] (SEQ ID NO:37).
Activity of purified metacaspase 3 was tested with different fluorescent substrates in assay buffers of pHs ranging from 4.5 to 9.0 (MES 50 mM). The substrates tested were: Ac-DEVD-AMC, Z-VAD-AMC, Boc-GRR-AMC, Boc-GKR-AMC, Z-FR-AMC and H-AFK-AMC. Only Z-FR-AMC was cut by metacaspase 3.

Z-FA-fluoromethyl ketone = molecular target: T3, Z-FA-fluoromethyl ketone
T3 chain: FA

Question: For “Z-FK-2,4,6-trimethylbenzoyloxymethyl ketone [Z-FK-tbmk]”, which “inhibition of Atmc9 activity” value (Atmc9 [1]; at the micromolar range) is on record?
Answer: Its value is “inhibited”.

Question: And the “Activity (%)” value (Atmc9 [1])?
Answer: The value was 33%.

Question: With “benzyloxycarbonyl-Phe-Arg-AMC (FR) [Z-FR-AMC]” as the molecule, how does the “quality as substrate for Atmc9” value (Atmc9 [2]) read?
Answer: Its value is “good substrates”.

Question: What about the “cleavage by metacaspase 3” value (metacaspase 3) of the same molecule?
Answer: Its value is “cut”.

Question: What does the source list for Z-FA-fluoromethyl ketone [Z-FA-fmk]?
Answer: effect on Atmc9 activity (Atmc9 [1]; at concentrations up to 100 μM): no effect; Activity (%) (Atmc9 [1]): 109%

B1: N-terminally HIS6-tagged Atmc9 (bacterially produced) (protein)
chain: MSYYHHHHHHLESTSLYKKAGSTMDQQGMVKKRLAVLVGCNYPNTRNELHGCINDVLAMKETILSRFGFKQDDIEVLTDEPESKVKPTGANIKAALRRMVDKAQAGSGDILFFHYSGHGTRIPSVKSAHPFKQDEAIVPCDFNLITDVDFRELVNQLPKGTSFTMISDSCHSGGLIDKEKEQIGPSSVSSNISPAIETTNKTITSRALPFKAVLDHLSSLTGITTSDIGTHLLELFGRDAGLKFRLPAMDLMDLLETMTAREKHVDSGILMSGCQADETSADVGVGNGKAYGAFSNAIQRVLNENEGAMKNKQLVMMARDVLERLGFHQHPCLYCSDQNADATFLSQP
Question: Which results are given for B1?
Answer: Activity (%) of Atmc9 with Boc-GKR-AMC as substrate, reagent at 5 µg/ml (Aprotinin, P00974): 96%; Activity (%) of Atmc9 with Boc-GKR-AMC as substrate, reagent at 100 µM (Z-FA-fluoromethyl ketone): 109%
